1 molecule from ChEMBL document CHEMBL5512615, “Targeting autophagy drug discovery: Targets, indications and development trends” (Eur J Med Chem, 2024) can be followed below.

Chains of the proteins cited; added tags and fusions are not shown. Lines headed by an entry give the natural chain unless they say otherwise; changes in a name come on top.
UniProt P48736: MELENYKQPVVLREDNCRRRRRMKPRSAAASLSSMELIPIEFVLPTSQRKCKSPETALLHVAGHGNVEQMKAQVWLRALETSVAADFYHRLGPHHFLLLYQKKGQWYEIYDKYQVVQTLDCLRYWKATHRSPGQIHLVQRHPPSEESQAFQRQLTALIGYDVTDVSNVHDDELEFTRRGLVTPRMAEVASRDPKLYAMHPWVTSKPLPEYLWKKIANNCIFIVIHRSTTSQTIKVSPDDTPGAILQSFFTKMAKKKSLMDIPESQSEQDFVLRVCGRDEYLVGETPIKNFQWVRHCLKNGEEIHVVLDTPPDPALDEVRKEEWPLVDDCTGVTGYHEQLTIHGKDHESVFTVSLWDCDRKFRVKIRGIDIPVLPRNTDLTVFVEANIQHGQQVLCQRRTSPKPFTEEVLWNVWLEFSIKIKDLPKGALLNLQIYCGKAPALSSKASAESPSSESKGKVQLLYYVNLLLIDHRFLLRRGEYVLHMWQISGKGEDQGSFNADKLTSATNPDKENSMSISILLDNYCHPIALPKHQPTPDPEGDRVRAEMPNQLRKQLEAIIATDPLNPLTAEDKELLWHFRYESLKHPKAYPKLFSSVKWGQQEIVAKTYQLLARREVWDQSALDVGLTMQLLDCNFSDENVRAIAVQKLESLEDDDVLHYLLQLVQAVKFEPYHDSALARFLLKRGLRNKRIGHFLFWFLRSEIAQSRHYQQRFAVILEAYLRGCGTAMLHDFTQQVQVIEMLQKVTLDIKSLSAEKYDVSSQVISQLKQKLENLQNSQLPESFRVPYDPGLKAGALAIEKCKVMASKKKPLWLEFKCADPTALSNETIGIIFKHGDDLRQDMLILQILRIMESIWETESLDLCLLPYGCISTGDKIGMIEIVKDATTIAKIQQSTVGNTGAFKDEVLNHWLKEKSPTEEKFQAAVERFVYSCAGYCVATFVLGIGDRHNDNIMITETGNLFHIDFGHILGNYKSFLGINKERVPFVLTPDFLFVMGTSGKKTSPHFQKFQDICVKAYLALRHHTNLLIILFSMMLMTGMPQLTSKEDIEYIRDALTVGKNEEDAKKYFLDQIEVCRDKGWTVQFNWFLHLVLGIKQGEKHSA
UniProt P42338: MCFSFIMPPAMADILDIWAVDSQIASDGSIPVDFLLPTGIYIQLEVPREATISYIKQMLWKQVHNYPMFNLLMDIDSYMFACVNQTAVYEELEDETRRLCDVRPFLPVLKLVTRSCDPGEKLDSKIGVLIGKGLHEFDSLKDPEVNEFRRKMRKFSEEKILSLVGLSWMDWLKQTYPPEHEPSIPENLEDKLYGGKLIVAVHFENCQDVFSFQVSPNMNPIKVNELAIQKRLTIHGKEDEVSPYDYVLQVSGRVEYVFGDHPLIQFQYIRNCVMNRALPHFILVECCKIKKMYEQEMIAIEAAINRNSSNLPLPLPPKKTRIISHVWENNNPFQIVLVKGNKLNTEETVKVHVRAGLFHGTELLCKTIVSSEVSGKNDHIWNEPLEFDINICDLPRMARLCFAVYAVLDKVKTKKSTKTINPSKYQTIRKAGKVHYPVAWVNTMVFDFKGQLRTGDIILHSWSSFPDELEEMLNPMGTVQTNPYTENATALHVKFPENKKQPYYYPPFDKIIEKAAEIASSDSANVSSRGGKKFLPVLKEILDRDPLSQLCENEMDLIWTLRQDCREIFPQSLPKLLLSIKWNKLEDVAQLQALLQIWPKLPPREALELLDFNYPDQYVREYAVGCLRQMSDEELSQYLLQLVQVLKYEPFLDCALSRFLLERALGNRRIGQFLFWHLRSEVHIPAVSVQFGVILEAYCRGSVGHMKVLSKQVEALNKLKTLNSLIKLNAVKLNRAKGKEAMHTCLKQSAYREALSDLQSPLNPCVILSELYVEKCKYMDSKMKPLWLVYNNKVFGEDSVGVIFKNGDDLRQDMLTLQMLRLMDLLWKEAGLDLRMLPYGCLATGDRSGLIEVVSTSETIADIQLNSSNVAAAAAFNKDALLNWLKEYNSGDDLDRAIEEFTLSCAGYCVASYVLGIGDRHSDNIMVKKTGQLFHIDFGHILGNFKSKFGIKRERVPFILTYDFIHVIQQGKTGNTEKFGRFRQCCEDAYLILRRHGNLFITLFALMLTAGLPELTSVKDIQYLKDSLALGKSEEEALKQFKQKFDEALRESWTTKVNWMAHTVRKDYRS

Assay [1] has as its target Phosphatidylinositol 4,5-bisphosphate 3-kinase catalytic subunit gamma isoform (Homo sapiens, UniProt P48736). Description: Inhibition of PI3Kgamma (unknown origin).
Assay [2] concerns the target Phosphatidylinositol 4,5-bisphosphate 3-kinase catalytic subunit beta isoform (Homo sapiens, UniProt P42338). The assay is described as follows: Inhibition of PI3Kbeta (unknown origin).

For the molecule `O=c1cc(N2CCOCC2)oc2c(-c3ccccc3)cccc12` [LY-294002], the IC50 in assay [1] worked out at 970 nM; in assay [2], 570 nM.
